The results in this text go back to PubChem BioAssay AID485358 (National Center for Advancing Translational Sciences (NCATS), 2010).

Sequences of proteins named here, by UniProt entry; tags and fusion partners are left off.
UniProt P14416, whole entry, looked up: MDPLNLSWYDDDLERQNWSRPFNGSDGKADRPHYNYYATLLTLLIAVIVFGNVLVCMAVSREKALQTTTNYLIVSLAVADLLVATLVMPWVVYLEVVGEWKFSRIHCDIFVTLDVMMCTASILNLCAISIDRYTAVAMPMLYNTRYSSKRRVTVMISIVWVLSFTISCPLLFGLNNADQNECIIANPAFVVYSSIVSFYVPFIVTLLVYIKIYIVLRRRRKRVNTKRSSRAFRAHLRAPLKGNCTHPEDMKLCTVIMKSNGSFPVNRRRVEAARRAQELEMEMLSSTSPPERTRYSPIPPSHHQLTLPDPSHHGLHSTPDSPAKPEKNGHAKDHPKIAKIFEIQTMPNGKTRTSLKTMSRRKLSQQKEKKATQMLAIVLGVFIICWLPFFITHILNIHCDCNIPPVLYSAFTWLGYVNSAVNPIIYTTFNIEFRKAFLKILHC

Only a part is listed here, and it is no random draw. The source made the active and inactive calls.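 The calls were made as follows: active = activation over 3 SD above normal in the single-dose calcium agonist read (cut at about 30% in these data); inactive = the rest.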

The experiment concerns the target D(2) dopamine receptor (Homo sapiens) (UniProt P14416). In words: HTS Assay for Allosteric Agonists of the Human D2 Dopamine Receptor: Primary Screen for Agonists. Also: 0% is about no effect. To be noted: HEK293 T-REx D2 cells, calcium flux agonist mode; at 2 µM; stronger effect = higher value. The source says: NIH Chemical Genomics Center [NCGC] NIH Molecular Libraries Probe Centers Network [MLPCN] MLPCN Grant: NS064831-01 Assay Submitter (PI): David Sibley Dopamine receptors (DARs) are involved in the etiology and/or therapy of a number of neuropsychiatric and endocrine disorders. For instance, all receptor-based antiparkinsonian drugs work via stimulating the D2 DAR subtype whereas all FDA-approved antipsychotic agents are antagonists of this receptor. […] There are three different types of allosteric modulators that we are seeking, two of which will stimulate or augment receptor signaling, allosteric agonists and potentiators, while the third, allosteric antagonists, will attenuate receptor signaling. The present primary screening assay measures compound agonism by tracking calcium flux in a […], inducible Hek293 Trex D2 cell line.
Freshly passaged cells are plated in 1536 well black, clear bottom plates at a density of 4000 cells/well in 3 ul of complete media containing 1x tetracycline inducer. After an overnight incubation at […] in 5% CO2, cells are loaded with 2 ul of the no wash Calcium Assay Kit (ABD Bioquest) and incubated at room temperature for 30 to 90 minutes. Agonist read: A 10 cycle (1 second/cycle) baseline measurement is taken and then the FDSS online 1536 pintool delivers 23 nl of compound library (as well as dopamine controls) to the plate. The plate is measured for kinetically at 1 cycle/sec for 180 seconds and is considered to be the agonist portion of the assay (eg, compounds which activate a positive calcium response during this portion are flagged as potential agonists). Following the 180 second read, 1 ul of either an EC20 (positive modulation assay) or EC80 (negative modulation assay) is delivered by an onboard pipette head. Measurements are taken kinetically for an additional 180 seconds.
On the technique in general: Calcium flux is commonly read through the fluorescence of an indicator in the cells.
Regarding `Cc1ccc(OP(=O)(Nc2ccccn2)Oc2ccc(C)cc2)cc1`, the activation was inactive: -7.57%.
Then `CC(=O)NC(SC(=S)N(CC(C)C)CC(C)C)C(Cl)(Cl)Cl` (configuration not stated), with inactive: -0.854%.
Then `COC(=O)c1cc2c(s1)N=C(c1ccccc1)N(C)P2(=O)N1CCOCC1` (configuration not stated), with inactive: 0.421%.
The same measure for `CCC(=O)N1C2C3N(C(=O)CC)C1C1N(C(=O)CC)C(C(N1C(=O)CC)N3C(=O)CC)N2C(=O)CC`: inactive: 0.241%.
As to `O=C(OC1CN2CCC1CC2)c1ccccc1` (configuration not stated), the activation was inactive: 0.291%.
Then `O=C(O)COc1ccc([As](=O)(O)O)cc1[N+](=O)[O-]`, with inactive: -0.365%; and `Nc1ccccc1[As](=O)(O)c1ccccc1`, with inactive: 0.1%; and `CS(=O)(=O)c1cc([N+](=O)[O-])c2no[n+]([O-])c2c1`, with inactive: 0.156%.
In the case of `O=P(Nc1nccs1)(Oc1ccccc1)Oc1ccccc1`, the activation was inactive: -0.823%.
The same measure for `O=P(Nc1nccs1)(c1ccccc1)c1nc2ccccc2s1` (configuration not stated): inactive: 0%; for `O=[N+]([O-])c1ccc2c(c1)nnn2O`: inactive: -0.425%; for `CCOP1(=S)c2c(C)nn(CCC#N)c2N=C(c2ccc(F)cc2)N1C` (configuration not stated): inactive: 0.404%.
Then `CN(C(=O)Cc1ccccc1)[C@@H]1CC[C@]2(CCCO2)C[C@H]1N1CCCC1`, with inactive: -0.831%; and `N#CCCN(C(=O)COC(=O)C(O)(c1ccccc1)c1ccccc1)c1ccc(F)cc1`, with inactive: 0.592%; and `NC(=O)Nc1ccc([As](=O)(O)O)cc1`, with inactive: 0.267%.
Turning to `Cc1cccc(OCC(=O)OC2CN3CCC2CC3)c1` (configuration not stated), the activation is inactive: -0.686%.
With `O=[As](O)(c1cccc(O)c1)c1cccc(O)c1`, the activation is inactive: 1.1%.
For `CS(=O)(=O)c1ccc(Cl)c(NC(=O)COC(=O)C(O)(c2ccccc2)c2ccccc2)c1`, the activation is inactive: -0.668%.
In the case of `O=[As](O)(O)c1cccnc1`, the activation is inactive: 2.4%.
On to `COc1cc(C(=O)NCC2(N3CCOCC3)CCCCC2)cc(Cl)c1OC(C)C`, for which the activation was inactive: 1.6%.
Then `O=C(OC1CN2CCC1CC2)c1ccc(Cl)cc1` (configuration not stated), with inactive: -1.71%; and `CCOP(=O)(Nc1cccc2ccccc12)OCC`, with inactive: 1.85%; and `COc1cc(C2NCCC3(OCCO3)C2(C)C)cc(OC)c1OC` (configuration not stated), with inactive: -0.136%.
Then `CCCOP(=S)(Nc1nc(N)cc(=O)[nH]1)OCCC`, with inactive: -1.67%; and `Nc1cccc2c([As](=O)(O)O)cccc12`, with inactive: 13.1%.
Consider `Cc1ccc(NCCc2c([N+](=O)[O-])cc([N+](=O)[O-])cc2[N+](=O)[O-])cc1`, for which the activation was inactive: -0.563%.
Then `CC(C)(C)C(=O)NC(Sc1ncccn1)C(Cl)(Cl)Cl` (configuration not stated), with inactive: 0.0145%; and `Clc1n[nH]nc1-c1nn[nH][15n]1`, with inactive: 0.416%; and `CCOP(=O)(Nc1ccc(C)cn1)OCC`, with inactive: 1.05%.
The same measure for `CCOP(=O)(NC(=NC(C)c1ccccc1)NC(C)c1ccccc1)OCC` (configuration not stated): inactive: -3.13%; for `CCC1=CC2Cc3nc4ccc(Cl)cc4c(N)c3C(C1)C2` (configuration not stated): inactive: 0.841%; for `O=P1(Nc2ccccn2)COc2ccccc2OC1`: inactive: 0.69%.
The same measure for `O=[As](O)(c1ccccc1Br)c1ccccc1Br`: inactive: 4.29%; for `CN(C(=O)Cc1ccc(Cl)c(Cl)c1)[C@@H]1CCCC[C@H]1N1CCCC1`: inactive: -1.35%; for `CC(C)/C=N\N=C(\N)N[N+](=O)[O-]`: inactive: -0.0332%.
As for `COc1ccccc1CNC(=O)COC(=O)C(O)(c1ccccc1)c1ccccc1`, the activation was inactive: -0.261%.
Then `O=C(/C=C/c1ccccc1)OC1CN2CCC1CC2` (configuration not stated), with inactive: 0.597%.
The same measure for `CN(C)C1(CNC(=O)c2ccc(S(C)(=O)=O)cc2)CCCCC1`: inactive: -0.245%.
Turning to `Cc1ccc(C(=O)OC2CN3CCC2CC3)cc1` (configuration not stated), the activation was inactive: 0.785%.
Consider `CC1CCC(C(C)C)C(OP(=O)(Nc2ccccn2)c2ccccc2)C1` (configuration not stated), for which the activation was inactive: 2.12%.
For `Cc1nn(-c2ccccc2)c2c1P(=O)(N1CCOCC1)N(C)C(c1ccccc1)=N2` (configuration not stated), the activation is inactive: -0.609%.
Then `O=[As](O)(c1cccs1)c1cccs1`, with inactive: -0.463%.
Then `Cc1ccc(OCC(=O)OC2CN3CCC2CC3)cc1` (configuration not stated), with inactive: -0.198%.
With `O=P1(Nc2ccc(Br)cn2)COc2ccccc2OC1`, the activation was inactive: 3.73%.
`Nc1cccc([As](=O)(O)c2ccccc2)c1`: the activation was inactive: -0.626%.
As for `O=P1(Nc2ncccn2)COc2ccccc2OC1`, the activation was inactive: -1.54%.
Then `Cc1cc(SC(NC(=O)c2ccccc2)C(Cl)(Cl)Cl)nc(C(C)C)n1` (configuration not stated), with inactive: -0.758%; and `CCCCOc1ccc(C(=O)NCC2(N3CCCCC3)CCCCC2)cc1OC`, with active: 33.2%; and `CCOC(=O)Nc1ccc([As](=O)(O)O)c(O)c1`, with inactive: 0.376%.
The same measure for `O=[N+]([O-])c1ccc(Nc2ccc(Oc3ccc([N+](=O)[O-])cc3[N+](=O)[O-])cc2)c([N+](=O)[O-])c1`: inactive: 0.762%; for `O=P(Nc1ccccn1)(c1cccc2ccccc12)c1cccc2ccccc12`: inactive: 5.52%; for `CCOC(=O)Nc1cccc([As](=O)(O)O)c1`: inactive: 0.587%.
As to `O=C(Nc1ccncc1[N+](=O)[O-])c1ccc([N+](=O)[O-])cc1[N+](=O)[O-]`, the activation is inactive: 2.27%.
The same measure for `O=C(COc1ccccc1)OC1CN2CCC1CC2` (configuration not stated): inactive: 0.323%; for `COP1(=S)c2c(C)nn(CCC#N)c2N=C(c2ccc(F)cc2)N1C` (configuration not stated): inactive: -2.31%; for `CCC(C)N(CC(C)C)C(=S)SC(NC(C)=O)C(Cl)(Cl)Cl` (configuration not stated): inactive: -0.308%.
For `CCOC(=O)c1ccc(NC(=O)C(C)(CCl)SC)cc1` (configuration not stated), the activation is inactive: -0.0938%.
Then `O=C(OC1CN2CCC1CC2)c1cccc([N+](=O)[O-])c1` (configuration not stated), with inactive: 1.48%.
As to `COc1cc(I)ccc1[As](=O)(O)O`, the activation was inactive: 0.852%.
With `COc1ccc2nc(NP(=O)(c3ccccc3)c3ccccc3)sc2c1`, the activation is inactive: 0.552%.
The same measure for `Cc1cc(=O)[nH]c(N[N+](=O)[O-])n1`: inactive: 5.99%; for `O=C(OC1CN2CCC1CC2)C12CC3CC(CC(C3)C1)C2` (configuration not stated): inactive: 1.46%; for `Cc1c2c(nc3ccccc13)SC(C(Cl)Cl)C2` (configuration not stated): active: 41.5%.
As for `COc1ccc(N/C(=N/P(=O)(N2CCOCC2)N2CCOCC2)N2CCOCC2)cc1`, the activation is inactive: 0.053%.
`Cc1ccc2nc3c(c(C)c2c1)CC(C(Cl)Cl)S3` (configuration not stated): the activation is inactive: 9.4%.
Take `Cc1ccc(OP(=O)(Nc2ccc([N+](=O)[O-])cn2)Oc2ccc(C)cc2)cc1`: the activation is inactive: -0.655%.
The same measure for `O=[As](O)(c1ccc(O)cc1)c1ccccc1O`: inactive: 0.601%.
For the molecule `C[As](=O)(O)c1cccc(C(=O)O)c1`, the activation is inactive: 0.167%.
With `O=[N+]([O-])c1cc([N+](=O)[O-])c(-c2ccn[nH]2)s1`, the activation was inactive: -0.883%.
Then `CC(C)NC(=O)NP(=O)(Oc1ccccc1)Oc1ccccc1`, with inactive: 0.577%.
As for `CCN(CC)C(=S)SC(NC=O)C(Cl)(Cl)Cl` (configuration not stated), the activation is inactive: 0.247%.
Consider `CC(C)c1ccc(OP(=O)(Nc2ccccn2)Oc2ccccc2F)cc1` (configuration not stated), for which the activation is inactive: -0.68%.
